Patent publication US20240376226A1, “COMPOSITIONS AND METHODS RELATING TO TUMOR ACTIVATED T CELL ENGAGERS” (Janux Therapeutics, Inc., priority 2019, published 2024)

Protein sequences, listed by entry. Tags and fused reporters are not part of them. Residues count along the entry.
UniProt P02701, 25-152: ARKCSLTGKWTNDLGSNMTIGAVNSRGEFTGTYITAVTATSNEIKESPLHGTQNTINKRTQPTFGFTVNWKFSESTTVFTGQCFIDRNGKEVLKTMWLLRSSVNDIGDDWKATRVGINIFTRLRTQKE

Columns and labels:
[1] = biological target: neutravidin (Gallus gallus, UniProt P02701); assay: Phage ELISA, phage binding to neutravidin alone (NAv bkgd); details: clonal phage, ELISA signal on neutravidin alone
[2] = system: SP34 (Ab-9, Ab-10); assay: Phagemid competition ELISA, SP34 pre-incubated with CD3; assay type: binding; details: for Phage ELISA 20 nM CD3 % inhib: 20 nM CD3 pre-incubation; for Phage ELISA 200 nM CD3 % inhib: 200 nM CD3 pre-incubation
[3] = system: SP34 (Ab-9, Ab-10); assay: BLI kinetic binding of antibody to peptides (Octet); details: Target SP34; biotinylated synthetic peptide on sensor
[4] = system: SP34 (Ab-9, Ab-10) binding to CD3; assay: BLI inhibition of kinetic binding of antibody to cognate antigen by peptides; details: Target SP34, 100 uM peptide
[5] = biological target: SP34 (Ab-9, Ab-10); assay: ELISA equilibrium binding of antibody to peptides; details: Target SP34; antibody titrated on captured peptide
[6] = biological target: SP34 (Ab-9, Ab-10) binding to CD3; assay: ELISA inhibition of equilibrium binding of antibody to cognate antigen by peptides; details: Target SP34; peptide inhibition of antibody binding to CD3
[7] = system: Trastuzumab (Ab-6, Ab-7); assay: Phagemid hit identification ELISA on captured Trastuzumab; assay type: binding; details: clonal phage on neutravidin captured biotinylated Ab-6, Ab-7
[8] = system: Trastuzumab (Ab-6, Ab-7); assay: Phagemid competition ELISA, Trastuzumab pre-incubated with soluble HER2; assay type: binding

## CC[C@H](C)[C@@H]1NC(=O)[C@H]([C@@H](C)O)NC(=O)CNC(=O)[C@@H](NC(=O)CNC(=O)[C@H](CCC(N)=O)NC(=O)CNC(=O)CN)CSSC[C@@H](C(=O)N[C@@H](Cc2c[nH]c3ccccc23)C(=O)NCC(=O)NCC(=O)NCC(=O)NCC(=O)N[C@@H](CO)C(=O)NCCOCCOCCOCCOCCC(=O)N[C@@H](CCCCNC(=O)CCCC[C@@H]2SC[C@@H]3NC(=O)N[C@@H]32)C(N)=O)NC(=O)[C@H](Cc2c[nH]cn2)NC(=O)[C@@H]2CCCN2C(=O)[C@H](CCC(=O)O)NC(=O)[C@@H]2CCCN2C(=O)[C@H](CC(=O)O)NC(=O)[C@H](C)NC1=O [Peptide-25]
[1]
  Phage ELISA NAv bkgd: 0.061
[2]
  Phage ELISA 20 nM CD3 % inhib: 84%
  Phage ELISA 200 nM CD3 % inhib: 84%
[3]
  Octet BLI Binds: YES
[4]
  Octet BLI Competes at 100 uM: YES
[5]
  EC50: 1.95 nM
[6]
  IC50: 2490 nM

## CC[C@H](C)[C@@H]1NC(=O)[C@H](CCSC)NC(=O)[C@@H](NC(=O)[C@H](CC(C)C)NC(=O)CNC(=O)CN)CSSC[C@@H](C(=O)N[C@@H](CC(C)C)C(=O)NCC(=O)NCC(=O)NCC(=O)NCC(=O)N[C@@H](CO)C(=O)NCCOCCOCCOCCOCCC(=O)N[C@@H](CCCCNC(=O)CCCC[C@@H]2SC[C@@H]3NC(=O)N[C@@H]32)C(N)=O)NC(=O)[C@H](C(C)C)NC(=O)[C@H](CC(=O)O)NC(=O)CNC(=O)[C@@H]2CCCN2C(=O)[C@H](CC(C)C)NC(=O)[C@H](Cc2c[nH]c3ccccc23)NC(=O)[C@H](CC(=O)O)NC(=O)CNC1=O [Peptide-28]
[1]
  Phage ELISA NAv bkgd: 0.058
[2]
  Phage ELISA 20 nM CD3 % inhib: 93%
  Phage ELISA 200 nM CD3 % inhib: 94%
[3]
  Octet BLI Binds: YES
[4]
  Octet BLI Competes at 100 uM: YES
[5]
  EC50: 6.76 nM
[6]
  IC50: 96000 nM

## CC[C@H](C)[C@@H]1NC(=O)[C@H](CC(=O)O)NC(=O)[C@H](CC(N)=O)NC(=O)[C@@H](NC(=O)CNC(=O)[C@H](CC(C)C)NC(=O)CNC(=O)CN)CSSC[C@@H](C(=O)N[C@H](C(=O)N[C@H](C(=O)NCC(=O)NCC(=O)NCC(=O)NCC(=O)N[C@@H](CO)C(=O)NCCOCCOCCOCCOCCC(=O)N[C@@H](CCCCNC(=O)CCCC[C@@H]2SC[C@@H]3NC(=O)N[C@@H]32)C(N)=O)C(C)C)[C@@H](C)CC)NC(=O)[C@H](CCC(N)=O)NC(=O)[C@H](CCC(=O)O)NC(=O)CNC(=O)[C@@H]2CCCN2C(=O)[C@H](CC(=O)O)NC1=O [Peptide-23]
[1]
  Phage ELISA NAv bkgd: 0.055
[2]
  Phage ELISA 20 nM CD3 % inhib: 85%
  Phage ELISA 200 nM CD3 % inhib: 85%
[3]
  Octet BLI Binds: YES
[4]
  Octet BLI Competes at 100 uM: YES
[5]
  EC50: 8.2 nM

## CC[C@H](C)[C@H](NC(=O)CNC(=O)CN)C(=O)N[C@@H](CC(=O)O)C(=O)N[C@H]1CSSC[C@@H](C(=O)N[C@@H](Cc2ccc(O)cc2)C(=O)NCC(=O)NCC(=O)NCC(=O)NCC(=O)N[C@@H](CO)C(=O)NCCOCCOCCOCCOCCC(=O)N[C@@H](CCCCNC(=O)CCCC[C@@H]2SC[C@@H]3NC(=O)N[C@@H]32)C(N)=O)NC(=O)[C@H](CO)NC(=O)[C@H](CCC(=O)O)NC(=O)[C@H]([C@@H](C)O)NC(=O)[C@H](Cc2ccc(O)cc2)NC(=O)[C@H](Cc2c[nH]cn2)NC(=O)[C@H](CC(=O)O)NC(=O)[C@H](CC(C)C)NC(=O)[C@H](CO)NC(=O)[C@H](C)NC1=O [Peptide-9]
[7]
  Phage ELISA Ab-6, Ab-7 signal: 2.004
[8]; pre-incubation with 6 nM soluble HER2
  Phage ELISA 6 nM Her2 % inhib: 90%
[8]; pre-incubation with 20 nM soluble HER2
  Phage ELISA 20 nM Her2 % inhib: 96%

## CC[C@H](C)[C@@H]1NC(=O)[C@H](CCC(=O)O)NC(=O)[C@H](C(C)C)NC(=O)CNC(=O)[C@@H]2CCCN2C(=O)[C@H](CC(=O)O)NC(=O)CNC(=O)[C@@H](NC(=O)[C@H](CC(=O)O)NC(=O)[C@H](CO)NC(=O)[C@H](CCSC)NC(=O)CNC(=O)CN)CSSC[C@@H](C(=O)N[C@H](C(=O)N[C@@H](Cc2c[nH]cn2)C(=O)NCC(=O)NCC(=O)NCC(=O)NCC(=O)N[C@@H](CO)C(=O)NCCOCCOCCOCCOCCC(=O)N[C@@H](CCCCNC(=O)CCCC[C@@H]2SC[C@@H]3NC(=O)N[C@@H]32)C(N)=O)[C@@H](C)O)NC1=O [Peptide-20]
[1]
  Phage ELISA NAv bkgd: 0.092
[2]
  Phage ELISA 20 nM CD3 % inhib: 97%
  Phage ELISA 200 nM CD3 % inhib: 98%
[3]
  Octet BLI Binds: YES
[4]
  Octet BLI Competes at 100 uM: YES
[5]
  EC50: 7.13 nM

## CC[C@H](C)[C@@H]1NC(=O)[C@H](CC(=O)O)NC(=O)[C@H](CCC(N)=O)NC(=O)[C@@H]2CCCN2C(=O)[C@H](CCC(=O)O)NC(=O)[C@H](Cc2c[nH]c3ccccc23)NC(=O)[C@H](CC(=O)O)NC(=O)[C@H](CC(N)=O)NC(=O)[C@H]([C@@H](C)CC)NC(=O)[C@@H]2CCCN2C(=O)[C@@H](NC(=O)[C@H](CC(C)C)NC(=O)CNC(=O)CN)CSSC[C@@H](C(=O)N[C@@H](Cc2c[nH]c3ccccc23)C(=O)NCC(=O)NCC(=O)NCC(=O)NCC(=O)N[C@@H](CO)C(=O)NCCOCCOCCOCCOCCC(=O)N[C@@H](CCCCNC(=O)CCCC[C@@H]2SC[C@@H]3NC(=O)N[C@@H]32)C(N)=O)NC1=O [Peptide-27]
[1]
  Phage ELISA NAv bkgd: 0.062
[2]
  Phage ELISA 20 nM CD3 % inhib: 94%
  Phage ELISA 200 nM CD3 % inhib: 95%
[3]
  Octet BLI Binds: YES
[4]
  Octet BLI Competes at 100 uM: YES
[5]
  EC50: 7.62 nM

## CC[C@H](C)[C@H](NC(=O)[C@H](CCC(=O)O)NC(=O)[C@@H]1CSSC[C@H](NC(=O)[C@@H](NC(=O)[C@H](CO)NC(=O)[C@H](CC(=O)O)NC(=O)CNC(=O)CN)C(C)C)C(=O)N[C@@H](C)C(=O)N[C@@H](CC(=O)O)C(=O)N2CCC[C@H]2C(=O)N[C@@H](CCC(=O)O)C(=O)N[C@@H](C(C)C)C(=O)N2CCC[C@H]2C(=O)N[C@@H]([C@@H](C)CC)C(=O)N1)C(=O)NCC(=O)NCC(=O)NCC(=O)NCC(=O)N[C@@H](CO)C(=O)NCCOCCOCCOCCOCCC(=O)N[C@@H](CCCCNC(=O)CCCC[C@@H]1SC[C@@H]2NC(=O)N[C@@H]21)C(N)=O [Peptide-19]
[1]
  Phage ELISA NAv bkgd: 0.051
[2]
  Phage ELISA 20 nM CD3 % inhib: 92%
  Phage ELISA 200 nM CD3 % inhib: 94%
[3]
  Octet BLI Binds: YES
[4]
  Octet BLI Competes at 100 uM: YES
[5]
  EC50: 8.03 nM

## CC[C@H](C)[C@H](NC(=O)[C@@H]1CSSC[C@H](NC(=O)[C@H](CCC(=O)O)NC(=O)[C@H](CC(C)C)NC(=O)CNC(=O)CN)C(=O)N[C@@H](Cc2ccccc2)C(=O)N[C@@H](CC(=O)O)C(=O)N2CCC[C@H]2C(=O)N[C@@H](CCC(=O)O)C(=O)N[C@@H]([C@@H](C)CC)C(=O)N2CCC[C@H]2C(=O)N[C@@H](CCC(=O)O)C(=O)N[C@@H](C)C(=O)N[C@@H](Cc2ccccc2)C(=O)N1)C(=O)NCC(=O)NCC(=O)NCC(=O)NCC(=O)N[C@@H](CO)C(=O)NCCOCCOCCOCCOCCC(=O)N[C@@H](CCCCNC(=O)CCCC[C@@H]1SC[C@@H]2NC(=O)N[C@@H]21)C(N)=O [Peptide-24]
[1]
  Phage ELISA NAv bkgd: 0.053
[2]
  Phage ELISA 20 nM CD3 % inhib: 90%
  Phage ELISA 200 nM CD3 % inhib: 90%
[3]
  Octet BLI Binds: YES
[4]
  Octet BLI Competes at 100 uM: YES
[5]
  EC50: 2.66 nM
[6]
  IC50: 2220 nM

## CC(C)C[C@@H]1NC(=O)[C@@H](NC(=O)[C@H](Cc2c[nH]c3ccccc23)NC(=O)[C@H](CCC(=O)O)NC(=O)CNC(=O)CN)CSSC[C@@H](C(=O)N[C@@H](CCC(N)=O)C(=O)N[C@@H](CC(=O)O)C(=O)NCC(=O)NCC(=O)NCC(=O)NCC(=O)N[C@@H](CO)C(=O)NCCOCCOCCOCCOCCC(=O)N[C@@H](CCCCNC(=O)CCCC[C@@H]2SC[C@@H]3NC(=O)N[C@@H]32)C(N)=O)NC(=O)[C@H]([C@@H](C)O)NC(=O)[C@@H]2CCCN2C(=O)[C@H](C(C)C)NC(=O)[C@H](CC(=O)O)NC(=O)[C@@H]2CCCN2C(=O)[C@H](CC(=O)O)NC(=O)[C@H](Cc2ccccc2)NC1=O [Peptide-22]
[1]
  Phage ELISA NAv bkgd: 0.051
[2]
  Phage ELISA 20 nM CD3 % inhib: 87%
  Phage ELISA 200 nM CD3 % inhib: 93%
[3]
  Octet BLI Binds: YES
[4]
  Octet BLI Competes at 100 uM: YES
[5]
  EC50: 2.56 nM
[6]
  IC50: 1810 nM

## CC[C@H](C)[C@H](NC(=O)CNC(=O)CN)C(=O)N[C@@H](CCC(N)=O)C(=O)N[C@H]1CSSC[C@@H](C(=O)N[C@@H](Cc2ccc(O)cc2)C(=O)N[C@H](C(=O)NCC(=O)NCC(=O)NCC(=O)NCC(=O)N[C@@H](CO)C(=O)NCCOCCOCCOCCOCCC(=O)N[C@@H](CCCCNC(=O)CCCC[C@@H]2SC[C@@H]3NC(=O)N[C@@H]32)C(N)=O)[C@@H](C)CC)NC(=O)[C@@H]2CCCN2C(=O)[C@H](CO)NC(=O)[C@@H]2CCCN2C(=O)[C@H](CC(C)C)NC(=O)[C@H](CC(=O)O)NC(=O)[C@@H]2CCCN2C(=O)[C@H](CC(=O)O)NC(=O)[C@H](Cc2c[nH]cn2)NC1=O [Peptide-21]
[1]
  Phage ELISA NAv bkgd: 0.052
[2]
  Phage ELISA 20 nM CD3 % inhib: 89%
  Phage ELISA 200 nM CD3 % inhib: 89%
[3]
  Octet BLI Binds: YES
[4]
  Octet BLI Competes at 100 uM: YES
[5]
  EC50: 8.25 nM

## CC[C@H](C)[C@H](NC(=O)CNC(=O)CNC(=O)[C@@H]1CSSC[C@H](NC(=O)CNC(=O)[C@H](Cc2c[nH]c3ccccc23)NC(=O)[C@H](CC(C)C)NC(=O)[C@H](Cc2ccc(O)cc2)NC(=O)CNC(=O)[C@H](CCC(N)=O)NC(=O)CNC(=O)[C@H](CO)NC(=O)[C@H](CCC(N)=O)NC(=O)CNC(=O)[C@@H](N)CCC(N)=O)C(=O)N[C@@H](CCC(=O)O)C(=O)N[C@@H](Cc2c[nH]c3ccccc23)C(=O)N[C@@H](CC(N)=O)C(=O)N1)C(=O)N[C@H](C(=O)N[C@H](C(=O)NCC(=O)NCC(=O)NCC(=O)NCC(=O)N[C@@H](CO)C(=O)NCCOCCOCCOCCOCCC(=O)N[C@@H](CCCCNC(=O)CCCC[C@@H]1SC[C@@H]2NC(=O)N[C@@H]21)C(N)=O)[C@@H](C)O)[C@@H](C)O [Peptide-18]
[3]
  Octet BLI Binds: YES
[4]
  Octet BLI Competes at 100 uM: YES
[5]
  EC50: 2.75 nM
[6]
  IC50: 4760 nM
